# In PubChem BioAssay AID488 (PCMD, 2006):
# Only a part is listed here, and it is no random draw. Calls of active or inactive are those of the source. Rule as the data show it: active = inhibition above about 22% (passing the limit was not always enough); inconclusive = no clear call, values can overlap the other calls.
# Molecular target: Cathepsin B (Homo sapiens) (UniProt P07858)
# Test: human cathepsin B blockade, pooled library – biochemical, compound mixtures, AMC fluorescence, primary screen (AID 488);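 also: 0% = enzyme without compound and 100% = no enzyme blank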
# Details: Purified cathepsin B, AMC dipeptide fluorescence, active compounds read high,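 ten-compound pools at 5 µM per compound and 50 µM total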
row,Compound,inhibition
1,COc1ccccc1OP(C)(=O)Nc1c(C)n(C)n(-c2ccccc2)c1=O (stereo not drawn),inactive: 3.88%
2,CP(=O)(Oc1ccccc1)N1CCOC1=O (stereo not drawn),inactive: 3.1%
3,CCN(CC)CC(O)COC(=O)C(O)(c1ccccc1)C1CCCCC1 (stereo not drawn),inactive: 4.15%
4,CP(=O)(Nc1ccccn1)Oc1ccccc1 (stereo not drawn),inactive: 2.12%
5,Cc1nc2ccc3ccccc3c2o1.O=[N+]([O-])c1cc([N+](=O)[O-])c(O)c([N+](=O)[O-])c1,inactive: -0.48%
6,COc1ccccc1OP(C)(=O)Nc1ccc(C)c(C)c1 (stereo not drawn),inactive: 5.11%
7,CP(=O)(Nc1ccccc1F)Oc1ccccc1 (stereo not drawn),inactive: 2.72%
8,Cc1ccccc1NP(C)(=O)Nc1ccccc1C,inactive: -3.69%
9,CP(=O)(Nc1ccc2c(c1)OCCO2)Oc1ccccc1 (stereo not drawn),inactive: 4.44%
10,CCOP(C)(=S)SCC(=O)NC(C)(CC)C(=O)O (stereo not drawn),inactive: 7.22%
11,CN(C)CCOC(=O)C(O)(c1ccccc1)C1CCCCC1 (stereo not drawn),inactive: 2.61%
12,Cc1nc2ccc3ccccc3c2s1.O=[N+]([O-])c1cc([N+](=O)[O-])c(O)c([N+](=O)[O-])c1,inactive: 3.29%
13,Cc1ccc(C)c(NP(C)(=O)Oc2ccccc2)c1 (stereo not drawn),inactive: -1.15%
14,COc1ccccc1OP(C)(=O)Nc1ccc(C)cc1 (stereo not drawn),inactive: 1.14%
15,Cc1ccc(NP(C)(=O)Oc2ccccc2)c(C)c1 (stereo not drawn),inactive: -0.385%
16,CCOP(C)(=S)SCC(=O)NC(C)C(=O)O (stereo not drawn),inactive: 5.24%
17,CP(=O)(NC(=O)Nc1ccccc1)Oc1ccccc1 (stereo not drawn),inactive: -1.77%
18,CP(=S)(Nn1cnnc1)Oc1ccccc1 (stereo not drawn),inactive: 2.62%
